Tested on: HBV
Assay: Compound 1 in combination with IFNα2a in chronic HBV infection mouse model (pAAV-HBV1.2 plus pKCMvint IFNα-2a or control plasmid)
Type: in vivo, C57BL/6J mice
Experimental: Chronic HBV infection mouse model was established using C57BL/6J mice (6 to 8 W, body weight 20 t 2 g) that were subjected to the high-pressure tail vein injection of a mixture of pAAV-HBV1.2 plasmid and pKCMvint IFNα-2a plasmid or pKCMvint control plasmid (6 μg/mouse), and expressed IFNα2a. One day after modeling, the mice were divided into 4 groups. Group A (0.9% saline injection group): pAAV-HBV1.2+pKCMvint+0.9%/NaCl; Group B (Compound 1 10 mg/kg intravenous injection group): pAAV-HBV1.2+pKCMvint+Compound 1 10 mg/kg; Group C (IFNα-2a group): pAAV-HBV1.2+pKCMvint IFNα-2a+0.9% NaCl; Group D (Compound 1 in combination with IFNα-2a group): pAAV-HBV1.2+pKCMvint IFNα-2a+APG 10 mg/kg. There were 5 mice in each group (except Group D that included 7 mice), the administration was performed for consecutive 3 times, i.e., on the day 1 after modeling, and on the days 7 and 14 after modeling; blood was collected once at orbital margin one day before the administration, and serum HBsAg/HBeAg levels were detected using Roche 601 instrument.

Substance: IFNα-2a: IFNα2a expressed in mice from pKCMvint IFNα-2a plasmid injected with pAAV-HBV1.2
- serum HBeAg compared with Group A (saline) (days 7, 14, 21 (P 0.004 on 7th day, 0.021 on 7th day as printed, 0.001 on 21st day)): statistically significant differences
- serum HBsAg compared with Group A (saline) (days 7, 14, 21 (P 0.010, 0.008, 0.004), Compound 1 10 mg/kg i.v. days 1, 7, 14, IFNα-2a plasmid-expressed): statistically significant differences
